Experimental data taken from patent publication US9090621B2, “Tyrosine kinase inhibitors” (Principia Biopharma Inc., priority 2013, dated 2015).

Amino acid sequences for entries named in this document (tags omitted). A change or cut given only in a name is not applied to a line headed by its entry.
UniProt Q06187: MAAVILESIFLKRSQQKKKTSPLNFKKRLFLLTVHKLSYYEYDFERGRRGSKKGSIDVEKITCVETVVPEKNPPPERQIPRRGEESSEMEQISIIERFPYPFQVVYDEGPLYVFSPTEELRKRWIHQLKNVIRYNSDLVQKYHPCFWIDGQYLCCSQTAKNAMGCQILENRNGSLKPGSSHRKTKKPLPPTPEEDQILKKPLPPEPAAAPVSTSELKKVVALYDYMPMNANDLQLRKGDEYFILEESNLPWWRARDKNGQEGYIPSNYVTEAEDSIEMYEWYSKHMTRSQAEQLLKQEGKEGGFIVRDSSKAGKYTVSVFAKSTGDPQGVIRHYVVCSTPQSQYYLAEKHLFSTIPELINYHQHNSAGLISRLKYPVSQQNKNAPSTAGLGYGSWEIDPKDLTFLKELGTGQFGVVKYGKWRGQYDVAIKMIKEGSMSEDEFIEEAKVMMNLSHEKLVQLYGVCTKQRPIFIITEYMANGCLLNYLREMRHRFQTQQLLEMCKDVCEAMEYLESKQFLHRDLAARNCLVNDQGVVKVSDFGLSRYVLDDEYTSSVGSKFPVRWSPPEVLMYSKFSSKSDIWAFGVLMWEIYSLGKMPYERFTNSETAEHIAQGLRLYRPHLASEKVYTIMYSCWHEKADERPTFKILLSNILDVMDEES

Columns and labels:
human recombinant Btk [1] = target: T1, human recombinant Btk (Homo sapiens (Human), UniProt Q06187); assay: biochemical;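 further: Read-out is the quantity of phosphorylated substrate product formed, and IC50 reflects inhibition of Btk kinase activity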
human recombinant Btk [2] = target: T1, human recombinant Btk; details: Caliper-based kinase assay; human recombinant Btk 2 nM, ATP 40 μM, peptide substrate 1 μM, room temperature 3 h

Compound | IC50 (human recombinant Btk [1]) [nM] | IC50 (human recombinant Btk [2]) [nM]
CC(C)C=C(C#N)C(=O)N1CCC[C@@H]1Cn1nc(-c2ccc(Oc3cc(F)ccc3F)cc2)c2c(N)ncnc21 [Example 71A, (R)-2-(2-((4-amino-3-(4-(2,5-difluorophenoxy)phenyl)-1H-pyrazolo[3,4-d]pyrimidin-1-yl)methyl)pyrrolidine-1-carbonyl)-4-methylpent-2-enenitrile] | 7 | –
CCN(CC)C(C)(C)C=C(C#N)C(=O)N1CCC[C@@H]1Cn1cc(-c2ccc(Oc3ccccc3)cc2)c2c(N)ncnc21 [Example 180B] | – | 4
N#C/C(=C\C1CCCN1)C(=O)N1CCC[C@H]1Cn1nc(-c2ccc(Oc3ccccc3)cc2F)c2c(N)ncnc21 (some centres unmarked) [Example 186] | – | 3.7

Further lines, results first:

IC50 (human recombinant Btk [1]) [nM] | IC50 (human recombinant Btk [2]) [nM] | Compound
3.3 | – | N#CC(=CC1CC1)C(=O)N1CCC[C@@H](n2cc(-c3ccc(Oc4ccccc4)cc3F)c3c(N)ncnc32)C1 [Example 56A, (R)-2-(3-(4-amino-5-(2-fluoro-4-phenoxyphenyl)-7H-pyrrolo[2,3-d]pyrimidin-7-yl)piperidine-1-carbonyl)-3-cyclopropylacrylonitrile]
11 | – | N#CC(=CC1CC1)C(=O)N1CCC[C@@H]1Cn1nc(-c2ccc(Oc3ccccc3)cc2Cl)c2c(N)ncnc21 [Example 70A, (R)-2-(2-((4-amino-3-(2-chloro-4-phenoxyphenyl)-1H-pyrazolo[3,4-d]pyrimidin-1-yl)methyl)pyrrolidine-1-carbonyl)-3-cyclopropylacrylonitrile]

Read-outs that look alike come from different tables or passages of the source.
